# Measured values published in article PMC11472320, “Computationally Driven Discovery of a BCR-ABL1 Kinase Inhibitor with Activity in Multidrug-Resistant Chronic Myeloid Leukemia” (Journal of Medicinal Chemistry, 2024).
# By UniProt entry, the sequences of proteins in these tests, tags left out. Where a name states a change or a piece, a line headed by the entry shows the natural chain unless it says otherwise. Residues count along the entry.
# UniProt P29323, 19-1055: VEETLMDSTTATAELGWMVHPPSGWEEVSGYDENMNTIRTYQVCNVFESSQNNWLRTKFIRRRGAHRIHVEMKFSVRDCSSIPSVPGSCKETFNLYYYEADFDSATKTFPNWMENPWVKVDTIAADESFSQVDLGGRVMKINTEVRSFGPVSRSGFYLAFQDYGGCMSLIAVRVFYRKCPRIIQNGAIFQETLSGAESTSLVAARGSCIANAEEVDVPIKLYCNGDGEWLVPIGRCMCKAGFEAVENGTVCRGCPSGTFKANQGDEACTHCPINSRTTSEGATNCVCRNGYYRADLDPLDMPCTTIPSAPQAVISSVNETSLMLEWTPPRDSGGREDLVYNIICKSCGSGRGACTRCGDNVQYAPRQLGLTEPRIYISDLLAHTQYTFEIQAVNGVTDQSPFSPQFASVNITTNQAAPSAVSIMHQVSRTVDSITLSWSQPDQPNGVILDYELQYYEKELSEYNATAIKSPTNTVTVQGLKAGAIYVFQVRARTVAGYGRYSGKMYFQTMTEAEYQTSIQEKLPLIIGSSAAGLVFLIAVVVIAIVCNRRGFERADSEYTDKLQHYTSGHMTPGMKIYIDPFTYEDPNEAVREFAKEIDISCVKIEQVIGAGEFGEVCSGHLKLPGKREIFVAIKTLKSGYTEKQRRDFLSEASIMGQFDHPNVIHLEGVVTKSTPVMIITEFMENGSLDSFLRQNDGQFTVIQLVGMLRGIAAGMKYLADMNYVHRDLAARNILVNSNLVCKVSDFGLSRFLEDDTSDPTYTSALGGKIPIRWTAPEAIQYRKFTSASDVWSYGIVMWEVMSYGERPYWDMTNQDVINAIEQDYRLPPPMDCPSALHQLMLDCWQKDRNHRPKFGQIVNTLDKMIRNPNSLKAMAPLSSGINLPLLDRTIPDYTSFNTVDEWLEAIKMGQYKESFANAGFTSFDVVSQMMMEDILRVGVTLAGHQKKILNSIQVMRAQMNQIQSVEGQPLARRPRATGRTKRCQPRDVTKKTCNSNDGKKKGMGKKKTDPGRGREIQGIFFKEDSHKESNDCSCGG
# UniProt Q9H1R3: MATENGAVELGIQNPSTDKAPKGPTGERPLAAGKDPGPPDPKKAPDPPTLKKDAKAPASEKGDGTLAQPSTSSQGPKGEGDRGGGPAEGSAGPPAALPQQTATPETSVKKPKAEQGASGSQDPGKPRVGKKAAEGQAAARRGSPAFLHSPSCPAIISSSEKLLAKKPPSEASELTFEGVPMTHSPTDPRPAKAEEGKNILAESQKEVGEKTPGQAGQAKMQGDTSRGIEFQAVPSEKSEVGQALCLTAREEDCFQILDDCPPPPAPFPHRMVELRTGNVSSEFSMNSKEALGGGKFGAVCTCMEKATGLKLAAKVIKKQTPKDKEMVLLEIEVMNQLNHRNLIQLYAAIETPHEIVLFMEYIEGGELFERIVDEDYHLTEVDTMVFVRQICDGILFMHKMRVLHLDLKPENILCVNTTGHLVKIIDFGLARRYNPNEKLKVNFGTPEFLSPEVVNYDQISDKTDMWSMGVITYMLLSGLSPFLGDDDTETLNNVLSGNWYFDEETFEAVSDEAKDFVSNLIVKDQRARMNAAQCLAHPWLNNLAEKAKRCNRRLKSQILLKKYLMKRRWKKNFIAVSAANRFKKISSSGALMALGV
# UniProt P51617, whole entry: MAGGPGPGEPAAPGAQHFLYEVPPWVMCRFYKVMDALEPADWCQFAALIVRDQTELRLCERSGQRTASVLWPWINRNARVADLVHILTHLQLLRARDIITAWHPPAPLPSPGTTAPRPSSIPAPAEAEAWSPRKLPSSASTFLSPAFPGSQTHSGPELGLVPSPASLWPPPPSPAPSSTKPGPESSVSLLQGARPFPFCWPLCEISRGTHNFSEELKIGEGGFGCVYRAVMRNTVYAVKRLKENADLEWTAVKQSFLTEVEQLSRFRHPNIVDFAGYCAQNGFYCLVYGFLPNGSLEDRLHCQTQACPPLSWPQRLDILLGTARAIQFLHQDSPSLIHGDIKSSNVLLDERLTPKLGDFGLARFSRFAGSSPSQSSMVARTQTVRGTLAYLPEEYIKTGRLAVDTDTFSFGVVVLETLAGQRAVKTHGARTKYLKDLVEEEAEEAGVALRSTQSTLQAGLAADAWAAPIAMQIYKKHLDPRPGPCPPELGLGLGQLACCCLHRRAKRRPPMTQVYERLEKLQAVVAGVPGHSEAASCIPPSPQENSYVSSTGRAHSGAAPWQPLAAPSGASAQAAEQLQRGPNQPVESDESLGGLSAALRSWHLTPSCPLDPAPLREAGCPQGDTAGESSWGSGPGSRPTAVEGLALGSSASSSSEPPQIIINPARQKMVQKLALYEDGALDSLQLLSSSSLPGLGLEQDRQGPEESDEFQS
# UniProt Q86UE8, whole entry: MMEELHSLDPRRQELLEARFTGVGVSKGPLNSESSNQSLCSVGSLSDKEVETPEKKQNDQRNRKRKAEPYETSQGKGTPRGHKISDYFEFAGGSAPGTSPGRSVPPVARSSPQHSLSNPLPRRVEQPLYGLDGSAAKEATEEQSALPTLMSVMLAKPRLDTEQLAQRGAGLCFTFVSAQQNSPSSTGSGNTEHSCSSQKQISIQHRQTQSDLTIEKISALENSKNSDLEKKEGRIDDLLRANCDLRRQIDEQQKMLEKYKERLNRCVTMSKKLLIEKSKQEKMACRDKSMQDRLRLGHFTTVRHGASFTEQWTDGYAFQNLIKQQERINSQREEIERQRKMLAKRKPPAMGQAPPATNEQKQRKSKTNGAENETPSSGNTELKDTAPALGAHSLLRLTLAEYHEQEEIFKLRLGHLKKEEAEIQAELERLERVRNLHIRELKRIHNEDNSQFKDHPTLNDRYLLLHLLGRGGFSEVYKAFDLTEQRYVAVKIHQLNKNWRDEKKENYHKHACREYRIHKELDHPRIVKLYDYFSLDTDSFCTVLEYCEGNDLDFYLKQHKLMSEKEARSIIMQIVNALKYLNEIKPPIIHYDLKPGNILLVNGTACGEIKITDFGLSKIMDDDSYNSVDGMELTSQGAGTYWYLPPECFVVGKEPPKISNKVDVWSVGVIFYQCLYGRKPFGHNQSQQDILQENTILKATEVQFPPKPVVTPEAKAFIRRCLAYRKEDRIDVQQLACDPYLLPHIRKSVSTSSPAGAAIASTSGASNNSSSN
# UniProt P20794: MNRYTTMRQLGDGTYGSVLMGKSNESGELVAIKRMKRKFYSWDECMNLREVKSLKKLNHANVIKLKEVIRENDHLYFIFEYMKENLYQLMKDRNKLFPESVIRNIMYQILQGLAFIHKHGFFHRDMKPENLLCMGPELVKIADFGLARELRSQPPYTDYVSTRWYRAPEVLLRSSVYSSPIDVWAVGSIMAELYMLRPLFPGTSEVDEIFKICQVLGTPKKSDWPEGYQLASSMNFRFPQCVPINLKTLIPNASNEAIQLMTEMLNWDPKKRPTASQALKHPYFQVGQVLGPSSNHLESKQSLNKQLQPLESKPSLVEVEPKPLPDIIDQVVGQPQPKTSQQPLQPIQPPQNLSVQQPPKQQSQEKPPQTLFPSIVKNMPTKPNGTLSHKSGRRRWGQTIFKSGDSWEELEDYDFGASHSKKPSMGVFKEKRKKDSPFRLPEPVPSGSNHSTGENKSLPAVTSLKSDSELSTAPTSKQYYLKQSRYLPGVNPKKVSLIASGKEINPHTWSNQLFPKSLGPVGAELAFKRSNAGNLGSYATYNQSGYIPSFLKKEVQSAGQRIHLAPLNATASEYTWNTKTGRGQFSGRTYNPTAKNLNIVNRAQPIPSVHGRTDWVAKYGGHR
# UniProt Q9BYT3: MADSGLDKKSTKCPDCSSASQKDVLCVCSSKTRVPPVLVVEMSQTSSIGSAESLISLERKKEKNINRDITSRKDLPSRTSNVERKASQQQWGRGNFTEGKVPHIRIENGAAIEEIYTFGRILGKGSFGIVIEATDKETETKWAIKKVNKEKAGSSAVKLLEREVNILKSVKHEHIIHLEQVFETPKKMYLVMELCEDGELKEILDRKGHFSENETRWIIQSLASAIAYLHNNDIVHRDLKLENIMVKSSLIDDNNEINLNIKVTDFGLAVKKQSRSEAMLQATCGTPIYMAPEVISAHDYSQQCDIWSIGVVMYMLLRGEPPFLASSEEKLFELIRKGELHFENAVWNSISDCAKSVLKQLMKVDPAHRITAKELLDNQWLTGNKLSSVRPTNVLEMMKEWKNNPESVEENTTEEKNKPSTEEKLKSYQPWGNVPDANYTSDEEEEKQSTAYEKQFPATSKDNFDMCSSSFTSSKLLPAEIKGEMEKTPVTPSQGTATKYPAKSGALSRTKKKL
# UniProt O15146, 24-869: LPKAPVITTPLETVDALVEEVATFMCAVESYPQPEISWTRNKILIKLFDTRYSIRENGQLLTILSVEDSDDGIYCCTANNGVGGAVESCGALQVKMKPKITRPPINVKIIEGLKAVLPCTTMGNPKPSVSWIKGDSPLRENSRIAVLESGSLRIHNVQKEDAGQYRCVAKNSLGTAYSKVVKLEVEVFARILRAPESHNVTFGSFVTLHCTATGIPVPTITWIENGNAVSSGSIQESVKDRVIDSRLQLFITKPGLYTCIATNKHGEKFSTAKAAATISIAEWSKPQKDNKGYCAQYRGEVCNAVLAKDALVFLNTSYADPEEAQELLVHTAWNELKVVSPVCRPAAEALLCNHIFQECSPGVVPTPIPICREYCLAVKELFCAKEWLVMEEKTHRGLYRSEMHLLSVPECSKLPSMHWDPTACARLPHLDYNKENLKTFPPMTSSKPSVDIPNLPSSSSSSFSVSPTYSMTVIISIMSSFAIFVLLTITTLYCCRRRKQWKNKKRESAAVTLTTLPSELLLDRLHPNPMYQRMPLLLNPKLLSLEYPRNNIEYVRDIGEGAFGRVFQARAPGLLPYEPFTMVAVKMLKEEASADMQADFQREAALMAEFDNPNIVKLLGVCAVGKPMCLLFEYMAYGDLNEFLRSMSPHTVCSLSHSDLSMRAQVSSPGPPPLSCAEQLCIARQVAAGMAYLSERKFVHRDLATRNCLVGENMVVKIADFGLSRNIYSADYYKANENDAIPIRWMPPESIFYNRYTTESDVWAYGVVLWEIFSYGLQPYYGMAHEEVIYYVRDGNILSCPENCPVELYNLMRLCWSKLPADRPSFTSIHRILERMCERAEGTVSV
# UniProt Q00535, whole entry: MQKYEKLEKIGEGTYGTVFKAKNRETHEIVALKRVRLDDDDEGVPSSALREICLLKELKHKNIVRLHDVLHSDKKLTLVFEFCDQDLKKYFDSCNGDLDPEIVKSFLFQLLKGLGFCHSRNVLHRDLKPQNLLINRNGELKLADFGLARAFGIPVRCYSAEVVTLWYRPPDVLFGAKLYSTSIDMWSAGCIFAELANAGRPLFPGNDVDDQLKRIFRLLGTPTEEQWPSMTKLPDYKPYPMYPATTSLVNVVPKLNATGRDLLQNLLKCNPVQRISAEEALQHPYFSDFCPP
# UniProt P06239: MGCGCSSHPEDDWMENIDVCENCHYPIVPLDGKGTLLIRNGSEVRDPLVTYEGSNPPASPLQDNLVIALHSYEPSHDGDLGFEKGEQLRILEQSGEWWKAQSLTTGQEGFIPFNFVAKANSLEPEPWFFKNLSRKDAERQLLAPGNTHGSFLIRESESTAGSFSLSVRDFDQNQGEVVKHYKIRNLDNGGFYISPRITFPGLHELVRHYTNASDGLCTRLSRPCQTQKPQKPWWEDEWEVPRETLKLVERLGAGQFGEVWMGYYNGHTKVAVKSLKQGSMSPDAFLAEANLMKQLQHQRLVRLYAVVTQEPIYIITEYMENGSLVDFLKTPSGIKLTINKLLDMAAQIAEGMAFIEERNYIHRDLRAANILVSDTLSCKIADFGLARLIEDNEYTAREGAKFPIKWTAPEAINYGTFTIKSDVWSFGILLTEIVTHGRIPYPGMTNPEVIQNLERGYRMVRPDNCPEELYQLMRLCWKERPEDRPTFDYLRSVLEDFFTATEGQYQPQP
# UniProt P07333, 539-972 limits assumed: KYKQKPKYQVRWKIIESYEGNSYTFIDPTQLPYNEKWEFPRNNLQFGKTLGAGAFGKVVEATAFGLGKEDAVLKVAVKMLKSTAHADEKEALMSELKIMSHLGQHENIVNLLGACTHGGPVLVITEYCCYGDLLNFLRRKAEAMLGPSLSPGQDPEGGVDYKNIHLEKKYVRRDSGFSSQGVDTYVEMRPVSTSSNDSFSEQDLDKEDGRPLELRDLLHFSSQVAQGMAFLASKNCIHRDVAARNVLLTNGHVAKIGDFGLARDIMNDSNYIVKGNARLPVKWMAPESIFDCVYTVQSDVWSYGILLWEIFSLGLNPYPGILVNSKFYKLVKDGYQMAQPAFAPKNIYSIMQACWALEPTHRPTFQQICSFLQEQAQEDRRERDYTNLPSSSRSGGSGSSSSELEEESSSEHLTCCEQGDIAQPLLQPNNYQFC
# What was measured:
# Assay in all cases: biochemical
# Details in all cases: read-out: Percent Control
# ULK1 = ULK1 (Homo sapiens, UniProt O75385)
# ALK(L1196M) = ALK(L1196M) (Homo sapiens, UniProt Q9UM73, L1196M)
# EPHB2 = EPHB2 (Homo sapiens, UniProt P29323)
# FRK = FRK (Homo sapiens, UniProt P42685)
# CAMK2G = CAMK2G (Homo sapiens, UniProt Q13555)
# MYLK2 = MYLK2 (Homo sapiens, UniProt Q9H1R3)
# IKK-alpha = IKK-alpha (Homo sapiens, UniProt O15111)
# MLK3 = MLK3 (Homo sapiens, UniProt Q16584)
# NEK5 = NEK5 (Homo sapiens, UniProt Q6P3R8)
# EPHA1 = EPHA1 (Homo sapiens, UniProt P21709)
# WEE1 = WEE1 (Homo sapiens, UniProt P30291)
# MRCKA = MRCKA (Homo sapiens, UniProt Q5VT25)
# MAP3K2 = MAP3K2 (Homo sapiens, UniProt Q9Y2U5)
# RIOK2 = RIOK2 (Homo sapiens, UniProt Q9BVS4)
# TRKC = TRKC (Homo sapiens, UniProt Q16288)
# [1] = biological target: TYK2(JH2domain-pseudokinase) (Homo sapiens, UniProt P29597)
# MYLK4 = MYLK4 (Homo sapiens, UniProt Q86YV6)
# ALK = ALK (Homo sapiens, UniProt Q9UM73)
# MEK1 = MEK1 (Homo sapiens, UniProt Q02750)
# IRAK1 = IRAK1 (Homo sapiens, UniProt P51617)
# TLK2 = TLK2 (Homo sapiens, UniProt Q86UE8)
# YSK1 = YSK1 (Homo sapiens, UniProt O00506)
# NEK2 = NEK2 (Homo sapiens, UniProt P51955)
# PIK3CD = PIK3CD (Homo sapiens, UniProt O00329)
# NEK4 = NEK4 (Homo sapiens, UniProt P51957)
# MAK = MAK (Homo sapiens, UniProt P20794)
# ADCK4 = ADCK4 (Homo sapiens, UniProt Q96D53)
# STK33 = STK33 (Homo sapiens, UniProt Q9BYT3)
# [2] = biological target: EGFR(L747-E749del, A750P) (Homo sapiens, UniProt P00533, A750P/DEL747-749)
# MUSK = MUSK (Homo sapiens, UniProt O15146)
# CDK5 = CDK5 (Homo sapiens, UniProt Q00535)
# LCK = LCK (Homo sapiens, UniProt P06239)
# CSNK1A1 = CSNK1A1 (Homo sapiens, UniProt P48729)
# p38-beta = p38-beta (Homo sapiens, UniProt Q15759)
# LRRK2(G2019S) = LRRK2(G2019S) (Homo sapiens, UniProt Q5S007, G2019S)
# STK39 = STK39 (Homo sapiens, UniProt Q9UEW8)
# TAOK1 = TAOK1 (Homo sapiens, UniProt Q7L7X3)
# DMPK2 = DMPK2 (Homo sapiens, UniProt Q6DT37)
# CSF1R-autoinhibited = CSF1R-autoinhibited (Homo sapiens, UniProt P07333)
# CAMK1B = CAMK1B (Homo sapiens, UniProt Q6P2M8)
# PAK1 = PAK1 (Homo sapiens, UniProt Q13153)
# CSNK1E = CSNK1E (Homo sapiens, UniProt P49674)
# EGFR(L858R) = EGFR(L858R) (Homo sapiens, UniProt P00533, L858R)
smiles,measurement,setting,value
"COc1cc2c(Nc3ccc(Cl)c(OC)n3)c(C#N)cnc2cc1OCCON1CCN(C)CC1 [16a, 4-((5-Chloro-6-methoxypyridin-2-yl)amino)-6-methoxy-7-(2-((4-methylpiperazin-1-yl)oxy)ethoxy)quinoline-3-carbonitrile]",remaining activity at 1 µM,ULK1,83%
same,remaining activity at 1 µM,ALK(L1196M),10%
same,remaining activity at 1 µM,EPHB2,6.7%
same,remaining activity at 1 µM,FRK,6.1%
same,remaining activity at 1 µM,CAMK2G,55%
same,remaining activity at 1 µM,MYLK2,16%
same,remaining activity at 1 µM,IKK-alpha,100%
same,remaining activity at 1 µM,MLK3,12%
same,remaining activity at 1 µM,NEK5,96%
same,remaining activity at 1 µM,EPHA1,69%
same,remaining activity at 1 µM,WEE1,12%
same,remaining activity at 1 µM,MRCKA,88%
same,remaining activity at 1 µM,MAP3K2,0.55%
same,remaining activity at 1 µM,RIOK2,100%
same,remaining activity at 1 µM,TRKC,100%
same,remaining activity at 1 µM,[1],84%
same,remaining activity at 1 µM,MYLK4,100%
same,remaining activity at 1 µM,ALK,76%
same,remaining activity at 1 µM,MEK1,0%
same,remaining activity at 1 µM,IRAK1,73%
same,remaining activity at 1 µM,TLK2,89%
same,remaining activity at 1 µM,YSK1,35%
same,remaining activity at 1 µM,NEK2,50%
same,remaining activity at 1 µM,PIK3CD,74%
same,remaining activity at 1 µM,NEK4,38%
same,remaining activity at 1 µM,MAK,100%
same,remaining activity at 1 µM,ADCK4,52%
same,remaining activity at 1 µM,STK33,4.3%
same,remaining activity at 1 µM,[2],1.1%
same,remaining activity at 1 µM,MUSK,22%
same,remaining activity at 1 µM,CDK5,97%
same,remaining activity at 1 µM,LCK,0.35%
same,remaining activity at 1 µM,CSNK1A1,2%
same,remaining activity at 1 µM,p38-beta,97%
same,remaining activity at 1 µM,LRRK2(G2019S),37%
same,remaining activity at 1 µM,STK39,79%
same,remaining activity at 1 µM,TAOK1,73%
same,remaining activity at 1 µM,DMPK2,31%
same,remaining activity at 1 µM,CSF1R-autoinhibited,65%
same,remaining activity at 1 µM,CAMK1B,91%
same,remaining activity at 1 µM,PAK1,48%
same,remaining activity at 1 µM,CSNK1E,0.5%
same,remaining activity at 1 µM,EGFR(L858R),0.15%
